These results are taken from ChEMBL document CHEMBL4017469, “First insight into structure-activity relationships of selective meprin β inhibitors” (Bioorg Med Chem Lett, 2017).

The target in experiment [1] is T1, Meprin A subunit beta (Homo sapiens, UniProt Q16820).
T1 sequence (Q16820 whole entry): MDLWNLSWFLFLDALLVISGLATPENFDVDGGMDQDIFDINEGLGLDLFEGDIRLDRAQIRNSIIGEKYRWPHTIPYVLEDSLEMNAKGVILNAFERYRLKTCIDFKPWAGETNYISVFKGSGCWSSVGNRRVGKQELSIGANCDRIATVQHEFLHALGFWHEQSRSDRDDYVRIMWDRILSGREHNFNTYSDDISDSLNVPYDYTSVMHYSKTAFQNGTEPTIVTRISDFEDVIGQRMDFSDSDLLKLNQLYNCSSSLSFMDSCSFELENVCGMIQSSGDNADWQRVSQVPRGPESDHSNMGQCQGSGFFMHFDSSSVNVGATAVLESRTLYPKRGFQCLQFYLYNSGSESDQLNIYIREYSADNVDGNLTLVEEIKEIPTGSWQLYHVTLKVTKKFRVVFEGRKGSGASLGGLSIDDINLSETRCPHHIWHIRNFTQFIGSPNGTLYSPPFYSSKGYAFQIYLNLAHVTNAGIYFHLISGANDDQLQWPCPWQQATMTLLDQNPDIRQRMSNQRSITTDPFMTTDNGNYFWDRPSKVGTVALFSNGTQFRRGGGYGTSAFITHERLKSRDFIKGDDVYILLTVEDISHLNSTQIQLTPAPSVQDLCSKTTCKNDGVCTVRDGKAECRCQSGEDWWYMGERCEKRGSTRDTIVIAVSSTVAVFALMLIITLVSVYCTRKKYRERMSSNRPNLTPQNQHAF
The experiment is described as follows: Inhibition of human meprin beta expressed in baculovirus infected BTI-TN-5B1-4 insect cells using N-benzoyl-L-tyrosylp-aminobenzoic acid as substrate.

Experiment [2] has as its target T1, Meprin A subunit beta. The experiment is described as follows: Inhibition of recombinant human meprin beta expressed in yeast using Abz-YVAEAPK(Dnp)G-OH as substrate by fluorescence assay.

For the compound `COc1ccc(S(=O)(=O)N(CC(=O)NO)CC(C)C)cc1`, affinity on Meprin A subunit beta [1] was put at a Ki of 7.4 µM. Moreover, the IC50 at Meprin A subunit beta [2] was 17.1 µM.
